# According to PMC7613639, “Broad-spectrum chemicals block ROS detoxification to prevent plant fungal invasion” (Current biology : CB, 2022):
# By UniProt entry, the sequences of proteins in these tests, tags left out.
# UniProt A0A384J7A0, entry or part of it: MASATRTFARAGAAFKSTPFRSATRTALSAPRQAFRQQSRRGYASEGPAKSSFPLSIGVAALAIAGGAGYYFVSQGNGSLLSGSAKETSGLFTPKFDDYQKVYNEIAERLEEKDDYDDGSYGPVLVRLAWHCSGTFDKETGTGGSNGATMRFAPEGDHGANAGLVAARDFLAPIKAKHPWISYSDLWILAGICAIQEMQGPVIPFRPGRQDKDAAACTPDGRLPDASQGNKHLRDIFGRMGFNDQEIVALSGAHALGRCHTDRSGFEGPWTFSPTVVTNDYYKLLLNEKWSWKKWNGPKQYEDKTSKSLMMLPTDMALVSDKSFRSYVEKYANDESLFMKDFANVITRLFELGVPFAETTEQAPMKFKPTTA
# Molecular target: T1, BcCcp1-His6 (Botrytis cinerea, UniProt A0A384J7A0)
# T1 construct: putative catalytic H131
# Assay: peroxidase assay, absorbance at […] nm
# Type: biochemical
# Details: 20 mM ABTS, 50 mM sodium acetate pH 5.0, 25 °C, 5 min
smiles,measurement,value
CCn1c(=NN=c2sc3cc(S(=O)(=O)O)ccc3n2CC)sc2cc(S(=O)(=O)O)ccc21 [ABTS],"peroxidase assay, absorbance at 420 nm",His-tagged BcCcp1 purified from Escherichia coli indeed had peroxidase activity
